Ab-14 heavy chain CDR variants: yeast mating affinities

Antigen: PDVDLGDISGINAS, a 14-residue peptide of the SARS-CoV-2 spike HR2 region.

The variants keep the light chain, the linker and the frameworks of Ab-14 (scFv order VH, the linker GGGGSGGGGSGGGGS, VL).
VH: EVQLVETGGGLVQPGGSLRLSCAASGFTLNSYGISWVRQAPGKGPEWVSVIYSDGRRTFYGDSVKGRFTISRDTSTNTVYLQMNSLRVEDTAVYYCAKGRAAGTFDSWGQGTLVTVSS
VL: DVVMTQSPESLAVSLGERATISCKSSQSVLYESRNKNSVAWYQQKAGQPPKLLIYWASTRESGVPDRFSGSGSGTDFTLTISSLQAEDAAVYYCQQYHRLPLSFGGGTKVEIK

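The parent was found by panning a naive human phage display library on the peptide. AAYL49 was designed without a model: most single CDR substitutions and a random sample of double and triple ones. Affinity was read by AlphaSeq, a pooled yeast mating assay with surface-displayed partners. Mating (16 h, 30 °C) was followed by selection of diploids and sequencing of their barcodes. Scores were corrected for input abundance and mapped to Kd with protein pairs of known affinity run in the same pool. Mating was done three times.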

Each variant is given by its three heavy chain CDRs, as the data file delimits them; those of the parent are GFTLNSYGIS, VIYSDGRRTFYGDSVK, GRAAGTFDS. This list gathers variants with a substitution at Y32 (VH, numbered from residue 1). Values are apparent Kd, the geometric mean of the replicates that gave a signal; lower means stronger binding. "no signal" marks a missing value. The strain was present, yet no cells mated with the target were sequenced in any replicate, which points to weak or no binding. Three control strains display no target. For library AAYL49, 15% of the pairings with them gave a signal, with a median of 11 µM and one signal in twenty below 680 nM, so weak values seen in few replicates may be background. In this assay the parent's reference entry averaged 4.4 nM; its copy inside this library read 13 µM (one replicate of three).

Variant GKTLNSAGIS / VIYSDGRRTFYGDSVK / GRAARTFDS gave no signal (0 of 3 replicates). For GFTLNSDGIS / VIYSDGRRTWYGDSVK / GRAAGTFDS, the assay gave no signal (0 of 3 replicates). Variant GFTLNSLGIS / VIYSDGRCTFYGDSVK / GRADGTFDS gave no signal (0 of 3 replicates). For GFTLNSVGIS / WIYSDGRRTFYGDSVS / GRAAGTFDS, the assay gave 75 nM (1 of 3 replicates). For GFTLNSIGIS / VIYSDGRRTFYGHSVK / KRAAGTFDS, the assay gave 23 µM (1 of 3 replicates). With GFVLNSKGIS / VIYSDGGRTFYGDSVK / GRAAGTFDS the result was 160 µM (1 of 3 replicates). For GFTLNSFGIS / VIYSDGRRTFYGDSVK / GRAAGTFDS, the assay gave 18 nM (3 of 3 replicates). For GFTLNSPGIS / VIYSDGRRTFYGDSVK / CRAAGTFDS, the assay gave no signal (0 of 3 replicates).

Variant GFTLNIKGIS / VIYSDGRRTWYGDSVK / GRAAGTFDS showed 41 µM (1 of 3 replicates). With GFTLNSEGIS / VIYSDGRRTFYGDSVK / GLAAGTFDS the result was 500 nM (3 of 3 replicates). For GFTLNSMGIS / VVYSDGRRTFYGDSVK / GRAAGTFDS, the assay gave 19 µM (2 of 3 replicates). With GFTLMSLGIS / VIYSDGRRTFYSDSVK / GRAAGTFDS the result was 220 µM (1 of 3 replicates). Variant GFTLNSIGIH / VIYSDGRRTFYGDSVK / GRAQGTFDS showed no signal (0 of 3 replicates). For GFTLNSQGIS / VIYSIGRRTFYGDLVK / GRAAGTFDS, the assay gave no signal (0 of 3 replicates). With GFTLNSSGIS / VIYSDGRRQFYGDSVK / GRAAGRFDS the result was 150 µM (2 of 3 replicates). Variant GFTLNSMGIS / VIYSDGRRTFYGDSVK / GRAAGTFDS showed 68 nM (3 of 3 replicates).

For GFTLNSIGIS / VIYSDGRRTFYGDSVK / GRAAGTFRS, the assay gave no signal (0 of 3 replicates). For GFTLNSEGDS / VIYSDGRRTFYGDQVK / GRAAGTFDS, the assay gave 11 µM (1 of 3 replicates). Variant GFTLNSGGMS / VIYSDGRRTFYGDSVK / GRAAGYFDS showed 16 µM (1 of 3 replicates). For GFTFVSMGIS / VIYSDGRRTFYGDSVK / GRAAGTFDS, the assay gave 2.0 µM (1 of 3 replicates). For GFTLNSVGIS / VIYSDGRRTFYGDSVG / GCAAGTFDS, the assay gave 1.9 mM (1 of 3 replicates). With GFTLNSMGIS / VIYSQGRRTFYGDSVK / GRAAGTFDS the result was no signal (0 of 3 replicates). Variant GFTLNSCGIS / TIYSDGRRTFYGDSVK / GRAAGTFDS showed 12 µM (1 of 3 replicates). Variant GFTLNSNGIS / VIYSDGDRTFSGDSVK / GRAAGTFDS showed no signal (0 of 3 replicates).

For GFTLNSLGIS / VIYSWGRRTFYGDSVK / GWAAGTFDS, the assay gave no signal (0 of 3 replicates). Variant GFTLNSIGIS / VIYSDGRRTFYNDSVK / GRAAGTFQS gave no signal (0 of 3 replicates). With GFTLNSPGLS / VIYSDGCRTFYGDSVK / GRAAGTFDS the result was 470 µM (1 of 3 replicates). Variant GYTLNSAGIS / VTYSDGRRTFYGDSVK / GRAAGTFDS showed 40 µM (2 of 3 replicates). With GFTLNSMGIS / VIYYDGRRTFYGDSPK / GRAAGTFDS the result was no signal (0 of 3 replicates). Variant GFTLNSDGIS / VIYSDGRRTFYGNMVK / GRAAGTFDS gave 1.1 µM (1 of 3 replicates). With GFTLNSIGIS / QIYSDGRRTFYGDSVK / GRAAGTFDC the result was no signal (0 of 3 replicates). Variant GFTLNSHGIS / VIYSDGTRTFYGDSVK / GRADGTFDS gave 6.4 µM (1 of 3 replicates).

Variant GFTLNSTGHS / VIYSDGRRTFYGDSVK / CRAAGTFDS gave no signal (0 of 3 replicates). For GFTLNSPSIS / VIYFDGRRTFYGDSVK / GRAAGTFDS, the assay gave no signal (0 of 3 replicates). Variant GFTLNSSGIS / IIYSDGRRTFYGDPVK / GRAAGTFDS gave no signal (0 of 3 replicates). With GTTLNSMGIS / VIYYDGRRTFYGDSVK / GRAAGTFDS the result was no signal (0 of 3 replicates). Variant GNTLNSAGIS / VIYSDGRRTFYGDSVK / GRAAGTFLS showed no signal (0 of 3 replicates). For GFTSNSVGIS / VIYSDGRRTSYGDSVK / GRAAGTFDS, the assay gave no signal (0 of 3 replicates). For GFTLNSIGIS / EIESDGRRTFYGDSVK / GRAAGTFDS, the assay gave 290 µM (1 of 3 replicates). For GFTLNSLGKS / VIYSDGRHTFYGDSVK / GRAAGTFDS, the assay gave 18 µM (3 of 3 replicates).

Variant GFTLMSWGIS / VIYSDGRRPFYGDSVK / GRAAGTFDS showed 120 µM (2 of 3 replicates). Variant GFTLNSSGIS / VIYSDGRRTFYGDSVK / GRAASTFKS gave no signal (0 of 3 replicates). For GFGLNSLGIS / VFYSDGRRTFYGDSVK / GRAAGTFDS, the assay gave no signal (0 of 3 replicates). For GFTLNYNGIS / VIYSDGRRTFYGDSVK / GRAAGTFDE, the assay gave no signal (0 of 3 replicates).

Extract of 5 entries:

The variant GFTLNSPGIS / VIYSDGRRTFYGDSVK / CRAAGTFDS showed no signal (0 of 3 replicates).
The variant GFTLNSPSIS / VIYFDGRRTFYGDSVK / GRAAGTFDS showed no signal (0 of 3 replicates).
The variant GFTLNSDGIS / VIYSDGRRTWYGDSVK / GRAAGTFDS showed no signal (0 of 3 replicates).
The variant GFTLNSIGIS / VIYSDGRRTFYGDSVK / GRAAGTFRS showed no signal (0 of 3 replicates).
The variant GFTLNSLGIS / VIYSWGRRTFYGDSVK / GWAAGTFDS showed no signal (0 of 3 replicates).

Data: MIT Lincoln Laboratory AlphaSeq set, Engelhart et al. 2022, doi:10.1038/s41597-022-01779-4, as distributed in FLAb.